Reference: ChEMBL document CHEMBL1124426

Species on record: Oryctolagus cuniculus
Test: Percentage of respirations per minute after treatment with morphine when compared to control in rabbit

C=CCN1CC[C@]23c4c5ccc(O)c4O[C@H]2C(=O)CC[C@@]3(O)[C@H]1C5
Reversal: 30%
